Measurements from publication PMC8640019, “Discovery of an exosite on the SOCS2-SH2 domain that enhances SH2 binding to phosphorylated ligands” (Nature Communications, 2021).

Protein sequences, listed by entry. Tags and fused reporters are not part of them. Residues count along the entry.
UniProt O14508, 32-198: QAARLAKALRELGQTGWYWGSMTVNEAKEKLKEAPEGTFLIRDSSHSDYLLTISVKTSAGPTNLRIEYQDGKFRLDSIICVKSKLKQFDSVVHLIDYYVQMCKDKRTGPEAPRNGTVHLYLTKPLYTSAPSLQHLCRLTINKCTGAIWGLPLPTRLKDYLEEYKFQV

Key:
Assay type in all cases: binding
SOCS2^32–198-EloB/C [1] = target: T1, SOCS2^32–198-EloB/C (Homo sapiens, UniProt O14508); assay: Isothermal titration calorimetry (ITC), peptide titrated into SOCS2-EloB/C
T1 construct: SOCS2 lacking the N-terminal region (SOCS2^32–198); GST (N, cleaved yes); made in house; host or cells: E. coli BL21 (R3)

SH2B = target: T2, SH2B (Homo sapiens, UniProt Q9NRF2); assay: ITC, SH2B; conditions: single ITC run #28 (JAK2 pY813), #26 (E11); cell SH2B
T2 construct: not at all to the SOCS3 or SH2B SH2 domains; 6xHis (N); made in house; host or cells: E. coli

SOCS2^32–198-EloB/C [2] = target: T1, SOCS2^32–198-EloB/C; assay: Competition SPR, immobilised biotin-GSGS-F3; conditions: peptides with identity to F3 tested by SPR
[3] = Table 1, values without asterisk, average ± range of two independent experiments

Molecule	Kd (SOCS2^32–198-EloB/C [1]; [3]) [µM]	interaction with SOCS2 (detectable binding) (SOCS2^32–198-EloB/C [2])	also measured
CC[C@H](C)[C@H](NC(=O)[C@@H](N)CC(=O)O)C(=O)N[C@@H](C)C(=O)N[C@@H](CC(C)C)C(=O)N[C@@H](CCC(N)=O)C(=O)N[C@@H](Cc1c[nH]cn1)C(=O)N[C@@H](CC(C)C)C(=O)N[C@@H](CCSC)C(=O)N[C@@H](C)C(=O)N[C@@H](CCCCN)C(=O)N[C@@H](Cc1c[nH]c2ccccc12)C(=O)N[C@@H](CCSC)C(=O)N[C@@H](C)C(=O)N[C@@H](CCSC)C(=O)N[C@@H](CCC(N)=O)C(=O)N[C@@H](CC(N)=O)C(=O)O [Peptide D9A]	3.18 ± 0.43	–	–
CSCC[C@H](NC(=O)[C@H](CC(C)C)NC(=O)[C@H](Cc1c[nH]cn1)NC(=O)[C@H](CCC(=O)O)NC(=O)[C@@H](NC(=O)[C@@H]1CCCN1C(=O)[C@@H](NC(=O)[C@H](CC(N)=O)NC(=O)[C@@H](N)Cc1ccc(O)cc1)C(C)C)[C@@H](C)O)C(=O)N[C@@H](CC(C)C)C(=O)N[C@@H](CCCCN)C(=O)N[C@@H](Cc1c[nH]c2ccccc12)C(=O)N[C@@H](CC(C)C)C(=O)N[C@@H](CO)C(=O)N[C@@H](Cc1c[nH]c2ccccc12)C(=O)N[C@@H](CCC(=O)O)C(=O)O [Peptide E11]	–	–	Kd (SOCS2^32–198-EloB/C [1]; 298 K, cell SOCS2-Elo B/C alone, peptide in syringe, mean ± S.D. (n≥3) or average ± range (n=2)): 4.17 ± 3.16 µM; Kd (SOCS2^32–198-EloB/C [1]; cell SOCS2-Elo B/C + GHRpY595, average ± range (n=2) or n=1): 0.21 µM; Kd (SH2B): > 40 µM
CC[C@H](C)[C@H](NC(=O)[C@@H](N)CC(=O)O)C(=O)N[C@@H](C)C(=O)N[C@@H](CC(C)C)C(=O)N[C@@H](CCC(N)=O)C(=O)N[C@@H](Cc1c[nH]cn1)C(=O)N[C@@H](CC(C)C)C(=O)N[C@@H](CCSC)C(=O)N[C@@H](CC(=O)O)C(=O)N[C@@H](C)C(=O)N[C@@H](Cc1c[nH]c2ccccc12)C(=O)N[C@@H](CCSC)C(=O)N[C@@H](C)C(=O)N[C@@H](CCSC)C(=O)N[C@@H](CCC(N)=O)C(=O)N[C@@H](CC(N)=O)C(=O)O [Peptide K10A]	> 10	–	–
CC[C@H](C)[C@H](NC(=O)[C@@H](N)CC(=O)O)C(=O)N[C@@H](C)C(=O)N[C@@H](CC(C)C)C(=O)N[C@@H](CCC(N)=O)C(=O)N[C@@H](Cc1c[nH]cn1)C(=O)N[C@@H](C)C(=O)N[C@@H](CCSC)C(=O)N[C@@H](CC(=O)O)C(=O)N[C@@H](CCCCN)C(=O)N[C@@H](Cc1c[nH]c2ccccc12)C(=O)N[C@@H](CCSC)C(=O)N[C@@H](C)C(=O)N[C@@H](CCSC)C(=O)N[C@@H](CCC(N)=O)C(=O)N[C@@H](CC(N)=O)C(=O)O [Peptide L7A]	> 10	–	–
CC[C@H](C)[C@H](NC(=O)[C@@H](N)CC(=O)O)C(=O)N[C@@H](C)C(=O)N[C@@H](CC(C)C)C(=O)N[C@@H](CCC(N)=O)C(=O)N[C@@H](Cc1c[nH]cn1)C(=O)N[C@@H](CC(C)C)C(=O)N[C@@H](C)C(=O)N[C@@H](CC(=O)O)C(=O)N[C@@H](CCCCN)C(=O)N[C@@H](Cc1c[nH]c2ccccc12)C(=O)N[C@@H](CCSC)C(=O)N[C@@H](C)C(=O)N[C@@H](CCSC)C(=O)N[C@@H](CCC(N)=O)C(=O)N[C@@H](CC(N)=O)C(=O)O [Peptide M8A]	> 10	–	–
ARSHILDKFIET [ARMD1]	–	None of the peptides displayed detectable binding	–
EKSKLLEKFSLV [MIA2]	–	None of the peptides displayed detectable binding	–
GIKKAALMHKWPLKEI	–	None of the peptides displayed detectable binding	–
GQPHLLNKFNFV [CFA54]	–	None of the peptides displayed detectable binding	–
SDRRLLDKWVEL [MABP1]	–	None of the peptides displayed detectable binding	–
SMMCPPGMHKWKLEQC	–	None of the peptides displayed detectable binding	–
TPGHLLDKFIKE [OAS, peptide from Homo sapiens OAS with identity to F3]	–	None of the peptides displayed detectable binding	–
